In ChEMBL document CHEMBL1143351 (J Med Chem, 2009):

Target: T1, Nitric oxide synthase, inducible (Mus musculus, UniProt P29477)
T1 sequence (P29477 whole entry): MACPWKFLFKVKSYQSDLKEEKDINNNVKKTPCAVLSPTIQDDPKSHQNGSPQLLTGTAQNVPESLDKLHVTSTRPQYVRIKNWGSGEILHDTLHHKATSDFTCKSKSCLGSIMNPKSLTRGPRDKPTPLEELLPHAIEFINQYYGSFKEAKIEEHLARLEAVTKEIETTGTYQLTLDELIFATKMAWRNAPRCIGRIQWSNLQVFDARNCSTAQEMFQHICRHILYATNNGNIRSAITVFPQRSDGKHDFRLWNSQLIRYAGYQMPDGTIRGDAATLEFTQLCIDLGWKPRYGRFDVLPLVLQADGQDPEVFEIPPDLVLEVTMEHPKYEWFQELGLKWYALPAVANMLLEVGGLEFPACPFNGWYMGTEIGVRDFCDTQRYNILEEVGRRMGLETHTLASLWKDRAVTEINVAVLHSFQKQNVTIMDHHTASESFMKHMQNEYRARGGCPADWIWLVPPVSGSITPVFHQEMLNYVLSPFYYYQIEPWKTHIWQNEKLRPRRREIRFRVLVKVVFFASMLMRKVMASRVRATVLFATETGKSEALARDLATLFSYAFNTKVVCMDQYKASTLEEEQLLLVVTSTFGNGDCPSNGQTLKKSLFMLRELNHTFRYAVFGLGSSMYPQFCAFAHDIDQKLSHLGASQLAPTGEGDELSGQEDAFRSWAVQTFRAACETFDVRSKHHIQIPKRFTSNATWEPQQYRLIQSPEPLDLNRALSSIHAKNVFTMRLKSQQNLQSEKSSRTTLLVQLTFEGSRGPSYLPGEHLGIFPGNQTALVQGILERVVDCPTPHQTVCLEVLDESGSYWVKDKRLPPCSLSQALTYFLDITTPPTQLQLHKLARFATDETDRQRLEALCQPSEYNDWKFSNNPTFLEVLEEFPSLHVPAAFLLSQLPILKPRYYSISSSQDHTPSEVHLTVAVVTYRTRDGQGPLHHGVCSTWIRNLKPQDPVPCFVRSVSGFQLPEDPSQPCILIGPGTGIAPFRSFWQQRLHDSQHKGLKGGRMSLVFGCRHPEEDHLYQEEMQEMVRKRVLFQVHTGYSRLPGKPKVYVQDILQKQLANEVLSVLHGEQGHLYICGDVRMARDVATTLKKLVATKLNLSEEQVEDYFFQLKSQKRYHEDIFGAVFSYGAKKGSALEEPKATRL

Ki: 9.48 µM
SMILES: Cc1cc(N)nc(C[C@H]2CNC[C@H]2NCCNCc2cccc(Cl)c2)c1 (racemic)
